From ChEMBL document CHEMBL1777732, “Efficacy switching SAR of mGluR5 allosteric modulators: highly potent positive and negative modulators from one chemotype” (Bioorg Med Chem Lett, 2011)
The source made the active and inactive calls. No cut-off for these calls is given here.

Amino acid sequences for entries named in this document (tags omitted).
UniProt P41594, whole entry, looked up: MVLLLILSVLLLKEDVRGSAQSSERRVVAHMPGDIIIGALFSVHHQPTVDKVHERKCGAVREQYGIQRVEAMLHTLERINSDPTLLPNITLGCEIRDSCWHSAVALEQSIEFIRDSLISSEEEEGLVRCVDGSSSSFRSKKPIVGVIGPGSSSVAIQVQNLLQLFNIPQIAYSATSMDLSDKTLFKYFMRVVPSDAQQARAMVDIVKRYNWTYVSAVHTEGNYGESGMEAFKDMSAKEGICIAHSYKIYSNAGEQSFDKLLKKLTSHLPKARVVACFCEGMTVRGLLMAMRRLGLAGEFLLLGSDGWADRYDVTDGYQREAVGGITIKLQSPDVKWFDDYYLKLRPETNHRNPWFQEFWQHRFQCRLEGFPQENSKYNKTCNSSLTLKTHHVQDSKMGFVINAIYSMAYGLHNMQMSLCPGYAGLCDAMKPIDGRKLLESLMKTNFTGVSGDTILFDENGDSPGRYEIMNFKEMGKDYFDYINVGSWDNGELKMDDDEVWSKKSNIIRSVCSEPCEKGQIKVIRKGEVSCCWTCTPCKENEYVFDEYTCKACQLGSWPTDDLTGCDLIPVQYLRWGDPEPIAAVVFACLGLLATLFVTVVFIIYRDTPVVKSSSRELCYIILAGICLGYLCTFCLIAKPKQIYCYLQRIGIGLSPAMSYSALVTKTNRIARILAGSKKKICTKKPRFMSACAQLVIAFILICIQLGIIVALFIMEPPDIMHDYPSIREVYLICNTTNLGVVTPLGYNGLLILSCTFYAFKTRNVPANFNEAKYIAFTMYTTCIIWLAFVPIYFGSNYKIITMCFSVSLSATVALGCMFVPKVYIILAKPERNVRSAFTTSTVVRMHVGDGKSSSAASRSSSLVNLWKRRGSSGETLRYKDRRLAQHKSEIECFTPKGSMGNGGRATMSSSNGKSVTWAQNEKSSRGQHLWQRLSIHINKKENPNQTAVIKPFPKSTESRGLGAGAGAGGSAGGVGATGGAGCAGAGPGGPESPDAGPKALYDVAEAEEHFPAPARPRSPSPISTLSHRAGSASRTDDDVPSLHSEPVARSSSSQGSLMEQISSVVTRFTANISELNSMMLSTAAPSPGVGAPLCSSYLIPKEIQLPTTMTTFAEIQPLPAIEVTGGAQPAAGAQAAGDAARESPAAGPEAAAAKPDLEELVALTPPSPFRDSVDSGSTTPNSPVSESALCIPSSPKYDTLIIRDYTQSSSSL

Assays:
[1] = target: T1, Metabotropic glutamate receptor 5 (Homo sapiens, UniProt P41594); assay: Negative allosteric modulation of human mGluR5 expressed in HEK293 cells assessed as inhibition of L-glutamate-induced calcium mobilization at 10 uM by FLIPR assay relative to control; format: functional, cell-based
[2] = target: T1, Metabotropic glutamate receptor 5; assay: Positive allosteric modulation of human mGluR5 expressed in HEK293 cells assessed as increase of L-glutamate-induced calcium mobilization at 10 uM by FLIPR assay relative to L-glutamate; format: functional, cell-based

Row | Imax [1] | Emax [2] | SMILES
1 | inactive | inactive | CC(C)N1CCc2nc(C#Cc3cccnc3)ccc2C1=O
2 | inactive | inactive | CN1CCc2nc(C#Cc3cccnc3)ccc2C1=O
